# Antibody variant affinities, Ab-14 heavy chain, assay B

Source: Li et al. 2023 (doi:10.1038/s41467-023-39022-2), MIT Lincoln Laboratory and A-Alpha Bio; data file from the FLAb repository.

Antigen: PDVDLGDISGINAS, a 14-residue peptide of the SARS-CoV-2 spike HR2 region.

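The starting antibody came from a phage panning campaign against this peptide. The variants were designed computationally from a first round of random CDR variants and then made and measured. Group labels follow the data file (Ctrl: baseline library sampled from a position-specific scoring matrix, with some repeated check sequences; Rand: our label for a block that the file lists under HC and that is probably the random mutants of the ten best first-round binders; En: ensemble of fine-tuned language models; GP: Gaussian process model; GPLM: also part of the Gaussian process libraries; HC: hill climbing; Gen: genetic algorithm; Gibbs: Gibbs sampling; a sequence that several methods proposed may carry one label only). In AlphaSeq, yeast of one mating type display the scFv and yeast of the other type display the target. Mating (16 h, 30 °C) was followed by selection of diploids and sequencing of their barcodes. Scores were corrected for input abundance and mapped to Kd with protein pairs of known affinity run in the same pool. Each pool was mated in six replicate cultures.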

Ab-14 is the parent antibody, in scFv form: VH, then a (GGGGS)3 linker, then VL. The light chain is unchanged in all variants.
VH: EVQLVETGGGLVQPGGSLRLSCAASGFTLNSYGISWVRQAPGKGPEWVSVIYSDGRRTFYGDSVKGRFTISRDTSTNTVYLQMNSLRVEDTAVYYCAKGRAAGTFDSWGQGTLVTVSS
VL: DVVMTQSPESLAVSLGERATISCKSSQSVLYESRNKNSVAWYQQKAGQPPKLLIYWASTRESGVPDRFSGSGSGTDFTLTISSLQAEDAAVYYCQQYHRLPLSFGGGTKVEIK

Positions count from residue 1 of the parent VH; T28E puts E in place of T. This list holds designs with at most six substitutions. Values are log10 of the apparent Kd in nM; lower means stronger binding. The mean shown is taken over the replicates in which the pair was detected. Where no diploid with the target was found in any replicate, the entry reads "nd": below detection, most likely a poor binder, though not proof of it. Order: sorted from the lowest average up, undetected variants last. The authors averaged sequences with at least three values out of six and counted those with two or fewer as poor binders. Values of this round are not directly comparable with the first-round values of the same sequences. Where one sequence has several entries in the source, the replicates are pooled. Background: pairings of all heavy chain designs with three empty control strains gave a value in 1% of cases (median 2.08, 5th percentile 0.84). Values in that range, when seen in few replicates, are hard to tell from nonspecific mating.

| changes | group | mean, log10 nM | detected |
|---|---|---|---|
| T28E/S31E/R100Q/A101T/S107T | GP_Gen | -0.54 | 6/6 |
| T28S/S31E | Ctrl+GPLM_Gen | -0.30 | 12/12 |
| T28D/S31E/S53A/F59A/G61S/R100H | En_HC | -0.25 | 6/6 |
| T28D/S31E/S53A/G61T/R100Q/A101V | En_HC | -0.19 | 6/6 |
| S31N/R56Q/G61S | GPLM_HC | -0.07 | 6/6 |
| T28D/G61K/A101N | GP_Gen | 0.02 | 6/6 |
| T28E/G61T/R100S/A101E | GP_Gibbs | 0.06 | 6/6 |
| T28E/G61S/R100Q/A101T/S107K | GP_Gibbs | 0.09 | 5/6 |
| T28E/S53A/S107I | GP_Gen | 0.13 | 6/6 |
| T28D/G61A/A101V/S107K | GP_Gen | 0.14 | 6/6 |
| S31E/G61T/R100H | GP_HC | 0.17 | 6/6 |
| T28R/S31E/R100Q/A101T | GPLM_HC | 0.25 | 6/6 |
| R56K/A101N/S107T | GPLM_Gibbs | 0.30 | 6/6 |
| T28E/G61A/S63N/R100K/A101N | GP_Gibbs | 0.31 | 6/6 |
| T28S/F59A/R100S | GPLM_Gen | 0.31 | 6/6 |
| T28V/S31E/A101T/S107T | GP_Gen | 0.53 | 6/6 |
| S53A/S63D/K65A | Ctrl | 0.57 | 6/6 |
| T28S/G61A/R100K/S107K | GPLM_Gen | 0.57 | 6/6 |
| T28D/G61I/R100D | GPLM_Gibbs | 0.70 | 6/6 |
| T28D/A101M/S107D | GP_Gibbs | 0.75 | 6/6 |
| T28S/G61A/S63A/A101T/S107K | GP_Gibbs | 0.76 | 6/6 |
| G61S/S63A | Ctrl | 0.79 | 6/6 |
| T28P/G61A/R100Q/A101L | GP_HC | 0.81 | 5/6 |
| T28S/G61I/R100H/A101V | GPLM_Gibbs | 0.95 | 6/6 |
| S31E/G61T/R100K/S107L | GP_HC | 0.96 | 6/6 |
| G61Q/R100K | Ctrl | 0.99 | 2/6 |
| T28D/S31D/S53A/G61T/T104A | Ctrl | 1.01 | 6/6 |
| T28H/G61A/A101L | GPLM_HC | 1.04 | 6/6 |
| S63R/R100Q/A101E/S107K | GP_Gibbs | 1.05 | 4/6 |
| S31E/G61M/A101L | GPLM_HC | 1.06 | 6/6 |
| G26K/T28D/G61C/R100Q/A101T | GP_Gibbs | 1.08 | 4/6 |
| R56L/G61I/R100Q | GPLM_HC | 1.13 | 1/6 |
| T28S/G61T/R100K/A101Q | GPLM_Gibbs | 1.22 | 6/6 |
| G26T/S31E | Ctrl | 1.26 | 1/6 |
| T28N/G61A/S63A/A101L | GP_Gibbs | 1.40 | 6/6 |
| S31M/G61S/R100Q/A101D | GP_HC | 1.41 | 1/6 |
| T28W/S31E/G61K/R100Q | GP_Gibbs | 1.55 | 6/6 |
| R56Q/F59W | Ctrl | 1.75 | 2/6 |
| S31E/F59M/G61L/A101F | GP_HC | 1.78 | 6/6 |
| A101E/D106S | Ctrl | 1.79 | 6/6 |
| G26Q/T28S | Ctrl | 1.83 | 5/6 |
| G61A/G103W | Ctrl | 2.00 | 1/6 |
| T58V/R100P | Ctrl | 2.01 | 1/6 |
| S31Q/S53A/G61F/T104F | Rand | 3.43 | 1/6 |
| N30D/S35W/Y52C/F105A/D106A | Rand | 3.48 | 2/6 |
| S31E/G61Q/T104H | Ctrl | nd | 0/6 |
| S31D/G61I/R100K/D106I | GP_HC | nd | 0/6 |
| S53A/R57K/A102N/F105N/D106K | Rand | nd | 0/6 |
| L29R/R100Q/F105M | Ctrl | nd | 0/6 |
| Y32P/G61H/D106C | Ctrl | nd | 0/6 |
| D62N/S107C | Ctrl | nd | 0/6 |
| T28S/R100W/S107K | GPLM_Gibbs | nd | 0/6 |
| T28S/A102S/T104R | Ctrl | nd | 0/6 |
| T28D/T58A/T104W/D106N | Rand | nd | 0/6 |
| D106P | Ctrl | nd | 0/6 |
| S31E/G61T/A101M/D106V | GPLM_HC | nd | 0/6 |
| S31E/V64T/G103V/F105H/S107Q | Rand | nd | 0/6 |
| L29G/S31H/Y52R/F59Q/G61I/S63H | Rand | nd | 0/6 |
| G26K/T28S/G61V/A101T | GPLM_Gibbs | nd | 0/6 |

9 of these entries, quoted again:

| changes | group | mean, log10 nM | detected |
|---|---|---|---|
| S31E/F59M/G61L/A101F | GP_HC | 1.78 | 6/6 |
| T28N/G61A/S63A/A101L | GP_Gibbs | 1.40 | 6/6 |
| T28D/G61I/R100D | GPLM_Gibbs | 0.70 | 6/6 |
| S31E/G61T/A101M/D106V | GPLM_HC | nd | 0/6 |
| T28D/A101M/S107D | GP_Gibbs | 0.75 | 6/6 |
| T28H/G61A/A101L | GPLM_HC | 1.04 | 6/6 |
| T28E/G61S/R100Q/A101T/S107K | GP_Gibbs | 0.09 | 5/6 |
| S31Q/S53A/G61F/T104F | Rand | 3.43 | 1/6 |
| T28S/A102S/T104R | Ctrl | nd | 0/6 |